Laboratory results: US20260232825A1, “LINKER-DRUG MOLECULE AND ANTIBODY DRUG CONJUGATE, PREPARATION METHOD THEREFOR AND USE THEREOF” (SHANGHAI ESCUGEN BIOTECHNOLOGY CO., LTD., priority 2023, published 2026)

Experiment: Size exclusion chromatography (SEC) analysis of the antibody-drug conjugates
Format: physicochemical
Conditions: SEC purity of the antibody-drug conjugate
Procedure: Size exclusion chromatography (SEC) analysis column is Tskgel G3000SWXL (TOSOH, 0008541); mobile phase is 0.1 M PB, pH7.0, 0.1M NaCl; isocratic elution, flow rate: 1 mL/min; column temperature: 25° C. Detection wavelength is 280 nm and 366 nm, respectively. Hydrophobic interaction chromatography (HIC) analysis column is Butyl-NPR 4.6×100 mm (TOSOH, 0042168); mobile phase A is 50 mM PB, pH7.0, 1.5 M (NH4)2SO4; mobile phase B is 50 mM PB, pH7.0, 20% acetonitrile. Separation gradient: changing from 0% B to 100% B in 2-20 min, column temperature: 30° C., flow rate: 0.6 mL/min. Detection wavelength is 280 nm and 366 nm, respectively. The results are shown in Table 1 and FIG. 1-FIG. 6 (FIG. 1 comprises FIG. 1A and FIG. 1B; FIG. 2 comprises FIG. 2A and FIG. 2B; FIG. 3 comprises FIG. 3A, FIG. 3B, FIG. 3C, FIG. 3D, FIG. 3E, FIG. 3F, FIG. 3G and FIG. 3H; FIG. 4 comprises FIG. 4A and FIG. 4B; FIG. 5 comprises FIG. 5A and FIG. 5B; and FIG. 6 comprises FIG. 6A, FIG. 6B, FIG. 6C, […], FIG. 6E, FIG. 6F, FIG. 6G and […]).

`CC[C@@]1(O)C(=O)OCc2c1cc1n(c2=O)Cc2c-1nc1cc(F)c(C)c3c1c2[C@@H](NC(=O)OCc1ccc(NC(=O)[C@H](C)NC(=O)[C@@H](NC(=O)[C@H](CCC(=O)O)NC(=O)CCCCCN2C(=O)C=CC2=O)C(C)C)cc1)CC3` [LD-27] gave an SEC % of 89.22%.
